{
  "source": "paper PMC2632899",
  "about": "(Nucleic Acids Research, 2008)",
  "binders": {"B1": {"name": "GST-XPA fusion protein (wild type) (natural protein)", "chain": "MAAADGALPEAAALEQPAELPASVRASIERKRQRALMLRQARLAARPYSATAAAATGGMANVKAAPKIIDTGGGFILEEEEEEEQKIGKVVHQPGPVMEFDYVICEECGKEFMDSYLMNHFDLPTCDNCRDADDKHKLITKTEAKQEYLLKDCDLEKREPPLKFIVKKNPHHSQWGDMKLYLKLQIVKRSLEVWGSQEALEEAKEVRQENREKMKQKKFDKKVKELRRAVRSSVWKRETIVHQHEYGPEENLEDDMYRKTCTMCGHELTYEKM"}},
  "target": "Flag-DDB1 alone (human)",
  "assay": "pull-down",
  "data": [
    {"binder": "B1", "values": [
      {"measurement": "binding result", "result": "binds"}
    ]}
  ]
}
